# Source: patent publication US9133150B2, “O-nitro compounds and pharmaceutical compositions including same” (dated 2015)
# This is a selection: effects in other tests are not listed, and their absence says nothing.
# Legend:
# SCC VII tumor [1] = assay: Chemosensitization effect of GLYN in combination with cis-platin on SCC VII tumor growth
# Description: Mice were implanted subcutaneously with a murine squamous cell carcinoma SCC VII tumor cells. When tumors grew to 100-150 mm^3 (12 days after implantation), mice with tumors were treated with a single dose of GLYN (100 mg/kg or 300 mg/kg), cis-platin (CDDP, 2 or 5 mg/kg) or in combination. Tumors were measured immediately before treatment and three times a week thereafter.
# SCC VII tumor [2] = assay: Radiosensitization effect of GLYN and SG on SCC VII tumor growth; conditions: GLYN 200 mg/kg single dose + 7 Gy radiation; p<0.05 compared with radiation alone
# Description: Mice were implanted subcutaneously with SCC VII tumor cells. When tumors reached 100-150 mm^3, mice with tumors were treated with a single dose of GLYN (200 mg/kg), sodium glycididazole (SG, 400 mg/kg), 7 Gy radiation, or in combination. Tumors were measured immediately before treatment and three times a week thereafter.
# SCC VII tumor cells [3] = assay: Production of nitric oxide (NO) in tumor cells by GLYN (DAF-FM diacetate fluorescence); conditions: GLYN 0.1 mM, 1 mM or 10 mM, FIG. 4a
# Description: (§1) SCC VII tumor cells were grown in 96-well plates overnight at 37° C. A fluorescent probe DAF-FM diacetate was added at a concentration of 10 μM for 1 hour and then washed out. GLYN was added in the growth media at concentrations of 0.1 mM, 1 mM or 10 mM. The green fluorescence was measured at 0 minutes, 10 minutes, 30 minutes, 1 hour, 2 hours, 6 hours and 24 hours after addition of GLYN using a microplate spectrofluorometer with an excitation at 495 nm and an emission at 515 nm (see FIGS. 4a and 4b).
# SCC VII tumor cells [4] = assay: Production of nitric oxide in tumor cells by GLYN and radiation (DAF-FM diacetate fluorescence); conditions: GLYN 0.1 mM, 1 mM or 10 mM combined with radiation 2 or 10 Gy, versus radiation alone
# Description: as §1, with “mM. Cells were immediately irradiated with radiation doses of 2 or 10 Gy.” for “mM.”, “nm.” for “nm (see”, “5a-5d show the production of nitric oxide in SCC VII cells at selected times after exposure to GLYN” for “4a”, “radiation. Radiation alone produced a low level of NO in SCC VII tumor cells.” for “4b).”
# [5] = GLYN 300 mg/kg single dose alone, s.c. SCC VII tumors in mice
smiles,measurement,setting,value
O=[N+]([O-])OCC1CO1 (stereo not drawn),4x TGT (tumor growth time: tumor volume quadrupling time),SCC VII tumor [1]; [5],3.6 ± 0.5 days
same,TGD (tumor growth delay time: 4x TGT of treated tumors minus mean 4x TGT of control tumors),SCC VII tumor [1]; [5],0.5 ± 0.5 days
same,response of SCC VII tumors to the treatment with cis-platin,SCC VII tumor [1]; GLYN at doses of 100 mg/kg or 300 mg/kg,significantly enhanced
same,4x tumor growth delay time,SCC VII tumor [2],4.4 days
same,nitric oxide generated in tumor cells,SCC VII tumor cells [3],depended on the dosage of GLYN
same,intracellular level of NO,SCC VII tumor cells [4],slightly increased
